Where “and” joins values, the source holds several entries; their conditions need not be identical. Equal values may be shown once.
Experiment: Photostability test in glass vials not shielded from light: gelation, molecular weight, percent conjugation of MTX (Example 4(2))
Type: physicochemical
Protocol: Various photostabilizers (methyl p-hydroxybenzoate (methyl paraben), salicylic acid Na, thiosulfuric acid Na, thioglycolic acid Na, N-acetyltryptophan, and tryptophan) were each dissolved in a preparation buffer (0.9% NaCl containing 2 mM phosphate buffer, pH 7.4) to give a concentration of 1 or 10 mg/ml and thereafter filtered aseptically by passage through a 0.2-μm filter (Millex GV). A powder of the HA-MTX conjugate prepared in accordance with Production 1 was metered aseptically and dissolved in the filtered, photostabilizer-containing preparation buffer to give a concentration of 10 mg/mL; the thus prepared solutions were used as test samples. To prepare a control solution, the HA-MTX conjugate was dissolved in a photostabilizer-free preparation buffer at a concentration of 10 mg/mL. […]
The irradiation was so performed as to give an illuminance of 4000 Lux at 25° C. from a fluorescent lamp for use in a photostability test (TOSHIBA FL20S•D-EDL-D65) by means of a photostability tester (ETAC LABONIC LA110). After the lapse of specified periods (0 h, 25 h, 50 h, 100 h, 150 h, and 300 h) of irradiation, samples were taken and not only checked for gelation but also measured for the molecular weight of the HA-MTX conjugate and the percent conjugation of MTX (in the HA-MTX conjugate). […]

O=C([O-])c1ccccc1O.[Na+] [Na salicylate, sodium salicylate]
Molecular weight (×10^4), irradiation time 50 h: 182 ×10^4 and 122 ×10^4

Source: patent US9072791B2, “Photostabilized pharmaceutical compositions” (DENKI KAGAKU KOGYO KABUSHIKI KAISHA, priority 2008, dated 2015)
